This assay has as its target Histamine H3 receptor (Rattus norvegicus, UniProt Q9QYN8). Kind of assay: In vitro binding affinity for rat histamine H3 receptor using [3H]N-alpha-methylhistamine. The method, boiled down: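 Radioligand binding used membranes from cells transfected with cloned human or rat H3 receptors.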

Chains of the proteins cited; added tags and fusions are not shown. Lines headed by an entry give the natural chain unless they say otherwise; changes in a name come on top.
UniProt Q9QYN8: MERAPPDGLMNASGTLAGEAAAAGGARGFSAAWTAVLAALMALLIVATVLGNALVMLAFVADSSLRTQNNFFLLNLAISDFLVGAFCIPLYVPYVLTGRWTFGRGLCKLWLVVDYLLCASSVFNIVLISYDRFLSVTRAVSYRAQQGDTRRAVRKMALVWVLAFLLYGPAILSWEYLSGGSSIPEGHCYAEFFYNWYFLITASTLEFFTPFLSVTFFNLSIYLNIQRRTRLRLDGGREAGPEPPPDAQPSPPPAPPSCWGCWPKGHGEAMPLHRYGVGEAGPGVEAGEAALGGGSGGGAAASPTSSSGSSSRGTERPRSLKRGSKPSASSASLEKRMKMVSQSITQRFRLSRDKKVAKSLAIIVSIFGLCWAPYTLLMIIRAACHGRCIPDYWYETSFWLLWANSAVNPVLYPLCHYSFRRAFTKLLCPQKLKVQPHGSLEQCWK

Structures are written as SMILES.

Broadly, the Ki is the equilibrium dissociation constant of an inhibitor or competing ligand from its target. High values mean a looser hold on the target, low ones a stronger hold on the target. Turning to `C[C@@H]1CCCN1CCc1cc2cc(-c3ccc(C#N)cc3)ccc2o1`, the affinity corresponds to a Ki of 1.23 nM.
